Compound activity: PubChem BioAssay, several laboratories
The list is not random: actives were taken first. Their share in the collection is about 2.3%.
ARFGAP1 inhibitor – inhibitors of rat ARFGAP1 GAP activity, primary screen, biochemical, fluorescence polarization, GDP tracer; Arfgap1-stimulated ARF1 GTP hydrolysis, GDP FP detection; inhibition, % at 16.5 µM; 0.26% of 360,000 active; AID 651572, 2012;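 active = inhibition above a per-plate limit, mean inhibition of low control wells plus 3 SD, cut at about 25% in these data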;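 also: 0% = DMSO wells with enzyme and 100% = wells lacking Arfgap1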
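system = rat Arfgap1 catalytic domain, aa 1-136 | technique = FP, GDP Alexa 633 tracer displaced from anti-GDP antibody, 620/688 nm | compound = one concentration, 16.5 µM, DMSO 1.26% | medium = HEPES-based buffer, pH 7.5 | timing = compound-enzyme preincubation 20 min, reaction 120 min, detection 60 min, 25 °C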
UUG fidelity – modulators of start codon recognition fidelity in yeast; S. cerevisiae UUG-firefly luciferase reporter, luminescence/redox ratio; activity score, % at 18.7 µM; hit rate 0.13% among 350,000; AID 602363;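 active = replicate mean at a twofold rise or more, about +100% in these data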;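 note: firefly luciferase made from a UUG start codon reports start codon fidelity; reporter light over untreated wells divided by growth signal over untreated wells; some hits fall short of that in this replicate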
ASAP1 GAP inh – inhibitors of human ASAP1 ArfGAP activity, primary screen, biochemical, fluorescence polarization; Arf-GAP with SH3 domain, ANK repeat and PH domain-containing protein 1 (Homo sapiens), …; ASAP1-stimulated ARF1 GTP hydrolysis, GDP FP detection; inhibition, % at 16.5 µM; 0.19% of 360,000 active; in the data active = inhibition above about 25%;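 also: 0% = vehicle with enzyme and substrate and 100% = no enzyme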
MC4R antag cAMP – MC4R antagonists of cAMP signaling, primary screen, cell-based, TR-FRET, antagonist arm of biased-ligand search; MC4R-expressing cells, MTII-stimulated cAMP, LANCE TR-FRET; inhibition, % at 6.5 µM; 0.48% of 360,000 active;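 active = inhibition above its plate's cutoff, the mean of tested wells on that plate plus 3 SD, cut at about 29% in these data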;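 also: 0% = Melanotan II alone and 100% = Melanotan II plus saturating MCL0020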
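Assay system: human MC4R-expressing U2OS cells; reagent: Melanotan II stimulation of cells; dosing: 6.5 µM single dose; timing: compound 30 min, challenge 1 h, detection 1 h; signal: TR-FRET cAMP assay; replicates: one well per compound, no replicates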
MC4R ag barr – MC4R agonists recruiting beta-arrestin, primary screen, cell-based, luminescence, agonist arm of biased-ligand search | U2OS MC4R beta-arrestin complementation; percent of melanotan II response, DMSO zero | activation, % at 8.9 µM | 0.98% of 360,000 active | AID 540308, 2011;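 active = activation above a per-plate cutoff, the mean activation of sample wells on that plate plus 3 SD, cut at about 8% in these data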
NRP1-CendR mod – modulators of CendR peptide binding to NRP-1, primary screen, biochemical, fluorescence polarization, uHTS; Neuropilin-1 (Homo sapiens), O14786; FAM-RPARPAR peptide binding to NRP-1; inhibition, % at 25 µM; 0.85% of 360,000 active; AID 602438, 2012;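 active = inhibition or corrected inhibition above about 18%, plus a signal ratio from 0.5 to 1.5, limit read from the data, passing the limit was not always enough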
U2OS cAMP counter – nonselective cAMP signaling inhibitors, parental cells, counter-screen for MC4R biased antagonist project, cell-based, TR-FRET, U2OS, forskolin, triplicate. shares compounds with MC4R antag cAMP. LANCE TR-FRET. inhibition, % at 6.5 µM. 26% of 1,600 active;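 active = mean inhibition over triplicates above the low-control well mean plus 3 SD, set per campaign, cut at about 13% in these data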;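 also: signal is single emission at 671 nm which falls as cellular cAMP rises; 0% = forskolin-stimulated wells and 100% = buffer without forskolin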
MC4R antag conf – MC4R cAMP antagonists, retest, confirmation, cell-based, TR-FRET | shares compounds with MC4R antag cAMP | MC4R-expressing cells, MTII-stimulated cAMP | inhibition, % at 6.5 µM | 27% of 1,600 active | AID 602195, 2012; in the data active = inhibition above about 29%;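 also: 0% = agonist stimulated wells alone and 100% = agonist stimulated wells plus saturating reference antagonist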
Numbers without * were called inactive.

The chains behind the UniProt entries cited, without tags or fusion partners.
Neuropilin-1 (Homo sapiens), O14786, UniProt O14786, whole entry, looked up: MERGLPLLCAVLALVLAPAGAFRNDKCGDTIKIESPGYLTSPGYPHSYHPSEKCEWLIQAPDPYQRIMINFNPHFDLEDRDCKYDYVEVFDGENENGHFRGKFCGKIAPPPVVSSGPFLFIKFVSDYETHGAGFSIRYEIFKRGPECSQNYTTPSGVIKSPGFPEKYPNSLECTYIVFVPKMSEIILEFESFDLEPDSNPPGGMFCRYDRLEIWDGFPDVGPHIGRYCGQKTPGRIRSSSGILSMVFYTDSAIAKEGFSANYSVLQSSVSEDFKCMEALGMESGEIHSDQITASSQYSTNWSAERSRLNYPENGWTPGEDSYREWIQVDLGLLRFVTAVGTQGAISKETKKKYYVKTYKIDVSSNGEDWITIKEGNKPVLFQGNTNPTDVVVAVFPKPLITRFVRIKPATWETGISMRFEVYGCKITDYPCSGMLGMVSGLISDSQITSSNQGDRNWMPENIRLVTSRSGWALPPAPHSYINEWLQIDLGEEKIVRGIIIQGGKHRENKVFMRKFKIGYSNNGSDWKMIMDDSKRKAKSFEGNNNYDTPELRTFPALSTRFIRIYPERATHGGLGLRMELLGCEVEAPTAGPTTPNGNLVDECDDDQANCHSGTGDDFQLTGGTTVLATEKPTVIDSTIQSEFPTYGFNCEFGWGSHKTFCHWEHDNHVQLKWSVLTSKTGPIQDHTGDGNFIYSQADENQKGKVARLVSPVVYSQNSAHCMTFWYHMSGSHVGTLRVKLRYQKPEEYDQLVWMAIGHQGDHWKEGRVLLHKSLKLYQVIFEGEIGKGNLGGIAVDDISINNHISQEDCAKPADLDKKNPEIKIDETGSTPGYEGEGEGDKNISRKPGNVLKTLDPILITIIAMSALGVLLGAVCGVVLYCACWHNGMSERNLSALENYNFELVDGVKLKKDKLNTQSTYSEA

What do the screens show for `CC1CCN(C(=O)c2ccc3c(c2)NC(=O)/C(=C/c2ccccc2)S3)CC1`?
ARFGAP1 inhibitor: 1.6; UUG fidelity: -17.4; ASAP1 GAP inh: -6.2; MC4R antag cAMP: 35.4*; MC4R ag barr: 8.8*; NRP1-CendR mod: -6.5; U2OS cAMP counter: -1.4; MC4R antag conf: 1.6

How did Cc1ccc(/C=C2/Sc3ccc(C(=O)N4CCN(C)CC4)cc3NC2=O)cc1 do in these assays?
ARFGAP1 inhibitor: -3.1; UUG fidelity: -4.0; ASAP1 GAP inh: -9.1; MC4R antag cAMP: 13.2; MC4R ag barr: 0.7; NRP1-CendR mod: 12.1

Results for C[C@H]1CN([C@@H](C)CO)C(=O)Cc2cc(NC(=O)Nc3ccc(C(F)(F)F)cc3)ccc2O[C@H]1CN(C)S(=O)(=O)c1ccccc1 ?
UUG fidelity: -6.6

Results for CCCCOc1ccc(C(NC(=O)OCC)NC(=O)OCC)cc1 ?
ARFGAP1 inhibitor: 1.8; UUG fidelity: -19.1; ASAP1 GAP inh: -2.5; MC4R antag cAMP: 28.6*; MC4R ag barr: -1.9; NRP1-CendR mod: -0.4; U2OS cAMP counter: -0.1; MC4R antag conf: 2.5

How did CCCCCCOc1ccc(C(CC(=O)O)C(N)=O)cc1 (stereo unspecified) do in these assays?
ARFGAP1 inhibitor: 11.4; UUG fidelity: -9.8; ASAP1 GAP inh: 6.8; MC4R antag cAMP: 0.9; MC4R ag barr: -0.4; NRP1-CendR mod: -1.8

Results for CC(C)(C)c1ccc(C(=O)Nc2sc3c(c2C(=O)O)CCC3)cc1 ?
ARFGAP1 inhibitor: -5.8; ASAP1 GAP inh: -8.2; MC4R antag cAMP: 30.4*; MC4R ag barr: -0.2; NRP1-CendR mod: -5.7; U2OS cAMP counter: 0.1; MC4R antag conf: 4.0

What do the screens show for `Cc1ccc(N2CCN(C(=O)c3cccc([N+](=O)[O-])c3)CC2)cc1Cl`?
ARFGAP1 inhibitor: 1.8; UUG fidelity: -25.5; ASAP1 GAP inh: 11.8; MC4R antag cAMP: 33.4*; MC4R ag barr: 0.5; NRP1-CendR mod: 6.7; U2OS cAMP counter: -0.4; MC4R antag conf: -10.4

Results for O=C(c1cccc([N+](=O)[O-])c1)N1CCN(c2cccc(Cl)c2)CC1 ?
ARFGAP1 inhibitor: 4.1; ASAP1 GAP inh: -0.7; MC4R antag cAMP: -9.9; MC4R ag barr: -0.4; NRP1-CendR mod: 2.3

What do the screens show for `C[C@@H]1CN([C@@H](C)CO)C(=O)c2cccc(NC(=O)c3ccc(-c4nccs4)cc3)c2O[C@H]1CN(C)S(=O)(=O)c1cn(C)cn1`?
UUG fidelity: 5.7

What do the screens show for `CC(=O)Nc1ccc2nc(NC(=O)c3cccnc3)sc2c1`?
ARFGAP1 inhibitor: 11.9; ASAP1 GAP inh: -6.3; MC4R antag cAMP: 3.6; MC4R ag barr: -0.9; NRP1-CendR mod: 1.0

Results for CC(=O)Nc1ccc2nc(NC(=O)C(Cl)(Cl)Cl)sc2c1 ?
ARFGAP1 inhibitor: 3.5; ASAP1 GAP inh: -2.2; MC4R antag cAMP: 29.1*; MC4R ag barr: 0.1; NRP1-CendR mod: -1.7; U2OS cAMP counter: -3.9; MC4R antag conf: -18.5

Results for Cc1nc(NC(=O)COC(=O)/C=C/c2ccco2)c(Cl)cc1Cl ?
ARFGAP1 inhibitor: -3.1; UUG fidelity: -10.3; ASAP1 GAP inh: 13.1; MC4R antag cAMP: 0.6; MC4R ag barr: -1.0; NRP1-CendR mod: -29.5

How did O=C(COC(=O)c1ccc2c(c1)OCO2)Nc1ncc(Cl)cc1Cl do in these assays?
ARFGAP1 inhibitor: -7.9; ASAP1 GAP inh: 11.5; MC4R antag cAMP: 9.4; MC4R ag barr: -1.9; NRP1-CendR mod: -0.6

Results for O=C(COC(=O)/C=C/c1ccco1)Nc1ncc(Cl)cc1Cl ?
ARFGAP1 inhibitor: -0.7; UUG fidelity: 11.1; ASAP1 GAP inh: -4.1; MC4R antag cAMP: 30.8*; MC4R ag barr: -0.6; NRP1-CendR mod: -19.7; U2OS cAMP counter: -4.1; MC4R antag conf: -17.7

What do the screens show for `O=C(COC(=O)CNC(=O)c1ccc2c(c1)OCO2)Nc1ncc(Cl)cc1Cl`?
ARFGAP1 inhibitor: 0.6; ASAP1 GAP inh: 3.3; MC4R antag cAMP: 29.5*; MC4R ag barr: -2.4; NRP1-CendR mod: -0.8; U2OS cAMP counter: 14.1*; MC4R antag conf: 23.5

How did CC(C)n1c(N2CCN(C(=O)NCc3ccccc3)CC2)nc2ccccc21 do in these assays?
ARFGAP1 inhibitor: 15.6; UUG fidelity: -30.0; ASAP1 GAP inh: -9.7; MC4R antag cAMP: 2.8; MC4R ag barr: -2.0; NRP1-CendR mod: 2.0

What do the screens show for `COc1ccc(NC(=O)N2CCN(c3nc4ccccc4n3C(C)C)CC2)cc1`?
ARFGAP1 inhibitor: 4.3; ASAP1 GAP inh: 15.9; MC4R antag cAMP: 30.2*; MC4R ag barr: 3.5; NRP1-CendR mod: -8.0; U2OS cAMP counter: 0.6; MC4R antag conf: 2.0

How did Cc1cc(-n2c(C)cc(C(=O)COc3cc(F)ccc3[N+](=O)[O-])c2C)no1 do in these assays?
ARFGAP1 inhibitor: 5.7; UUG fidelity: -29.1; ASAP1 GAP inh: -10.9; MC4R antag cAMP: 12.2; MC4R ag barr: -1.5; NRP1-CendR mod: -8.3

Results for Cc1cc(C(=O)COc2cc(F)ccc2[N+](=O)[O-])c(C)n1CC1CCCO1 (stereo unspecified) ?
ARFGAP1 inhibitor: -2.3; UUG fidelity: -9.2; ASAP1 GAP inh: -1.8; MC4R antag cAMP: 32.5*; MC4R ag barr: 3.2; NRP1-CendR mod: 3.0; U2OS cAMP counter: 12.2; MC4R antag conf: 24.7

How did COc1ccc(-n2c(CN3CCC(C)CC3)nc3ccc([N+](=O)[O-])cc3c2=O)c(OC)c1 do in these assays?
ARFGAP1 inhibitor: 2.6; ASAP1 GAP inh: -8.4; MC4R antag cAMP: 33.7*; MC4R ag barr: -0.1; NRP1-CendR mod: 0.5; U2OS cAMP counter: 0.3; MC4R antag conf: -9.4

How did Cc1cc(C)nc(SCc2nnc(SCC(=O)O)n2-c2ccccc2)n1 do in these assays?
ARFGAP1 inhibitor: 5.4; UUG fidelity: -10.4; ASAP1 GAP inh: -2.9; MC4R antag cAMP: 31.0*; MC4R ag barr: 0.5; NRP1-CendR mod: 5.4; U2OS cAMP counter: -2.2; MC4R antag conf: 0.9

Grouped by structure: the compounds so far containing two or more sulfur atoms
What do the screens show for `C[C@@H]1CN([C@@H](C)CO)C(=O)c2cccc(NC(=O)c3ccc(-c4nccs4)cc3)c2O[C@H]1CN(C)S(=O)(=O)c1cn(C)cn1`?
UUG fidelity: 5.7

How did Cc1cc(C)nc(SCc2nnc(SCC(=O)O)n2-c2ccccc2)n1 do in these assays?
ARFGAP1 inhibitor: 5.4; UUG fidelity: -10.4; ASAP1 GAP inh: -2.9; MC4R antag cAMP: 31.0*; MC4R ag barr: 0.5; NRP1-CendR mod: 5.4; U2OS cAMP counter: -2.2; MC4R antag conf: 0.9
